# AlphaSeq binding of Ab-14 light chain variants to a spike HR2 peptide

From the AlphaSeq antibody data of Engelhart et al. 2022 (doi:10.1038/s41597-022-01779-4), copy in the FLAb collection.

All variants were tested on one target, the spike HR2 peptide PDVDLGDISGINAS (SARS-CoV-2).

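The parent was found by panning a naive human phage display library on the peptide. Library AAYL50 holds single substitutions and randomly drawn double and triple substitutions in the CDRs. Affinity was read by AlphaSeq, a pooled yeast mating assay with surface-displayed partners. The frequency of each diploid, read from paired DNA barcodes, reflects how well the two displayed proteins bind. A regression on co-assayed BCL2-family reference pairs converts the normalised counts of each replicate to an apparent Kd. The assay was run in three technical replicates.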

Parent scFv Ab-14: VH joined to VL by three GGGGS repeats. Changes lie in the light chain CDRs alone.
VH: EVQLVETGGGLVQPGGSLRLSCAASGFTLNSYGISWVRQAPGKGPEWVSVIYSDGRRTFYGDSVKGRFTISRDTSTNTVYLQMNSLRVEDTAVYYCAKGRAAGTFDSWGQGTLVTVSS
VL: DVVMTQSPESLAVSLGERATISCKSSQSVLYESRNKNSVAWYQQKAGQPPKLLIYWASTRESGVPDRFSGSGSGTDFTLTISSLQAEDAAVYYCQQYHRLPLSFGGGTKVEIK

Substitutions are numbered in sequence along the VL above, starting at 1 (not Kabat). Values are log10 of the apparent Kd in nM; lower means stronger binding. An entry "ND" has no value in the source: the pair was not observed among the diploids in that replicate. This suggests poor binding but is not conclusive. Three control strains display no target. For library AAYL50, 18% of the pairings with them gave a signal, with a median of 4.19 and one signal in twenty below 2.99, so weak values seen in few replicates may be background. The control count says in how many pairings with the empty strains this scFv gave a signal, with their mean in brackets.

| # | changes | log10 Kd, replicates | empty controls |
|---|---|---|---|
| 1 | L30D R34S | 0.34 0.57 0.48 | 4/9 (4.86) |
| 2 | Q27E S38A Y97C | 1.54 1.60 1.58 | 2/9 (4.15) |
| 3 | S25H P101L L102C | ND ND ND | 0/9 |
| 4 | S33T W56K P101L | ND 4.94 ND | 2/9 (3.28) |
| 5 | Y31I A57W L102V | ND 3.95 ND | 0/9 |
| 6 | K24P R60H S103T | 4.36 ND 4.14 | 3/9 (4.38) |
| 7 | S25I Y97D S103K | ND 3.51 ND | 2/9 (3.82) |
| 8 | S28D R99H L102T | 1.42 2.02 1.97 | 0/9 |
| 9 | T59P E61D H98S | 4.31 3.79 ND | 3/9 (3.74) |
| 10 | K24C A40V Q95H | ND ND ND | 2/9 (4.28) |
| 11 | S28H N37W L100D | ND ND ND | 0/9 |
| 12 | S58T R99A L100P | ND ND ND | 0/9 |
| 13 | R60W R99A | 3.49 3.90 ND | 2/9 (4.18) |
| 14 | S28M T59D L100V | 2.19 2.90 2.88 | 2/9 (3.32) |
| 15 | Q27H P101Y S103Q | 1.64 1.93 1.79 | 2/9 (3.53) |
| 16 | S25C S38Q Q96G | 1.25 0.97 1.20 | 1/9 (3.40) |
| 17 | L30F R34I P101G | 2.14 1.96 2.15 | 2/9 (4.00) |
| 18 | S25I V39W L102I | 1.61 2.00 2.41 | 1/9 (3.60) |
| 19 | S58Q | ND ND ND | 3/9 (4.42) |
| 20 | S28C R34H L102H | ND ND 3.60 | 0/9 |
| 21 | Q27S K36R Q95C | ND 4.41 4.05 | 5/9 (4.13) |
| 22 | N35S W56F P101L | 0.94 1.14 1.27 | 3/9 (4.71) |
| 23 | S38W Y97S L102S | ND ND ND | 0/9 |
| 24 | S38Q Q96L L102H | ND ND ND | 0/9 |
| 25 | Y97H | ND ND ND | 0/9 |
| 26 | Y31L S33I Q96G | 3.73 4.91 ND | 0/9 |
| 27 | N37I A57S | ND 4.15 ND | 5/9 (4.95) |
| 28 | Y31S S58F Q95L | ND ND ND | 1/9 (4.19) |
| 29 | K24R S28E Q95M | 6.18 ND 5.10 | 1/9 (4.32) |
| 30 | V29T E61L S62N | 0.99 1.12 0.99 | 1/9 (3.15) |
| 31 | Y31H W56G S62L | ND ND ND | 0/9 |
| 32 | V29Y W56F Y97T | ND ND ND | 0/9 |
| 33 | S25V Q27W L102M | 1.77 1.65 1.60 | 5/9 (3.93) |
| 34 | W56D S58I L100A | 0.01 0.24 0.07 | 2/9 (5.31) |
| 35 | S33E A40N T59Q | ND ND ND | 0/9 |
| 36 | R60L R99I S103Y | ND ND 5.94 | 0/9 |
| 37 | S26L E32K R99S | ND ND ND | 3/9 (4.58) |
| 38 | L30A Y31F N35S | 1.23 1.49 1.34 | 2/9 (4.70) |
| 39 | V29W K36F L100W | 0.06 0.42 0.04 | 1/9 (2.36) |
| 40 | S25T S33H V39L | 1.11 1.26 1.31 | 2/9 (4.72) |
| 41 | R34I N35T E61K | 2.52 2.67 2.52 | 0/9 |
| 42 | S26A Y31N K36N | ND ND ND | 0/9 |
| 43 | K24M K36L R99A | 1.39 1.66 1.95 | 1/9 (3.43) |

Excerpt, the final 2 entries:

| changes | log10 Kd, replicates | empty controls |
|---|---|---|
| S26A Y31N K36N | ND ND ND | 0/9 |
| K24M K36L R99A | 1.39 1.66 1.95 | 1/9 (3.43) |

For reference, the parent read 0.65 as the reference entry and 1.68 as a member of this library.